We go through one compound from BindingDB's records for doi:10.1021/jm800182c (University of Tennessee Health Science Center, 2008).

A word on the Ki: it is a dissociation constant, usually derived from enzyme kinetics or from competition with a known ligand. Higher therefore signals a looser hold on the target.

For the assay, the target named is T1, Calpain-1 catalytic subunit (Sus scrofa, UniProt P35750).
T1 sequence (P35750 whole entry): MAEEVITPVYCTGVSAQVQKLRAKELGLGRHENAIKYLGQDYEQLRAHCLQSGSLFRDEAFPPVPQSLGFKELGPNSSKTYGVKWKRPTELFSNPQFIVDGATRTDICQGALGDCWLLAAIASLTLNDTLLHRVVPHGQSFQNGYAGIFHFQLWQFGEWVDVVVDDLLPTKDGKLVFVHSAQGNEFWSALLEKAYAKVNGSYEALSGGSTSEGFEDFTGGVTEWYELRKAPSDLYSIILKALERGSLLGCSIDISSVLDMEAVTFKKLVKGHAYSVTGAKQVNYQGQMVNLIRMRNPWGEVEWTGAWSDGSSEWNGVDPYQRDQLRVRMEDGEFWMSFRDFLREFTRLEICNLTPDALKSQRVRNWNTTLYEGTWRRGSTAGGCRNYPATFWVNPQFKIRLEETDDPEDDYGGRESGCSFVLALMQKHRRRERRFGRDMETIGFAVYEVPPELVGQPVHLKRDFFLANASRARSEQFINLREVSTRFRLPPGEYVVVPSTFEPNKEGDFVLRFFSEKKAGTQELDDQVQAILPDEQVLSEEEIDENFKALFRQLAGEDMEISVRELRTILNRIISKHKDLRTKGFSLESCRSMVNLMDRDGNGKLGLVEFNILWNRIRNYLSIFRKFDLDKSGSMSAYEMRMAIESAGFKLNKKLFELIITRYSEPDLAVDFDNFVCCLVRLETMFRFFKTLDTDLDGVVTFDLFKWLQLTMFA
As to the kind of experiment: mu-Calpain Inhibition Assay. Particulars: pH 7.4; 22 °C. As for the experimental part: Assays were initiated by addition of CaCl2, and the increase in fluorescence (ex @370 nm, em @440 nm) was monitored. MDL28170 and buffer with 2% DMSO were used as controls. Ki values were determined according to Dixon methods.

`COC(=O)C(=O)C(Cc1ccccc1)NC(=O)[C@H](CC(C)C)NC(=O)CC(c1ccccc1)c1ccccc1` (stereo partly drawn) [methyl 3-[(2S)-2-(3,3-diphenylpropanamido)-4-methylpentanamido]-2-oxo-4-phenylbutanoate] showed a Ki of 2150 nM. This counts as single-digit micromolar.
